The structures appear in SMILES notation.

The chains behind the UniProt entries cited, without tags or fusion partners.
UniProt O43614, whole entry: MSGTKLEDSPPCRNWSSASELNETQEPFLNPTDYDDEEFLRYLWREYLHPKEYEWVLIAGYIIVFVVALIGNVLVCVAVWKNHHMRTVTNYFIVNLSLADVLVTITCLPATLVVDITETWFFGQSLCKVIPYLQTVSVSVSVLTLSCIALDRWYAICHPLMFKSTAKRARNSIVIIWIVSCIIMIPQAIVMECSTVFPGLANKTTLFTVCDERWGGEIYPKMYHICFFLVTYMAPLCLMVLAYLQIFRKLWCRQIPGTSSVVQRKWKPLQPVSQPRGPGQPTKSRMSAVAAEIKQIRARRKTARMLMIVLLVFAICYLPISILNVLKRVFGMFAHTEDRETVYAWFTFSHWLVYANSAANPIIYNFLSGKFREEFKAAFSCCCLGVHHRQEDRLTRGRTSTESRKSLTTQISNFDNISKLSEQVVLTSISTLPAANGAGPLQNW
UniProt O43613, whole entry: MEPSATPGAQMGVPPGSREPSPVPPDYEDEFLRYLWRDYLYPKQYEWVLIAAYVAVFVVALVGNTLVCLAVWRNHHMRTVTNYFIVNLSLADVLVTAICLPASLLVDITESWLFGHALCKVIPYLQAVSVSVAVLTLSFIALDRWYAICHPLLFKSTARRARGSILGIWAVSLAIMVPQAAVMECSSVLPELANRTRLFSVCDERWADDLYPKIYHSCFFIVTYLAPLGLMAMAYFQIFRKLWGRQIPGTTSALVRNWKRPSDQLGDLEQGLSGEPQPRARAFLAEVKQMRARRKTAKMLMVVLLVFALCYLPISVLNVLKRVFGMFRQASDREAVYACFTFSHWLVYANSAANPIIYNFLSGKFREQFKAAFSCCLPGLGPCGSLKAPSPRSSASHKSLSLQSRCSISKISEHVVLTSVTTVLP

One test has as its target human orexin-2 receptor (Homo sapiens (Human), UniProt O43614). Briefly: Human orexin 2 receptor radioligand binding ([3H]-EMPA competition). The following applies: HEK293 cells stably expressing human orexin-2 receptor; [3H]-EMPA 5 nM final; read-out: OR-2 Ki. The protocol: (§1) The in vitro affinity of the compounds for the human orexin-1 and orexin-2 receptors was determined by competitive radioligand binding using [^3H]SB SB674042 (1-(5-(2-fluoro-phenyl)-2-methyl-thiazol-4-yl)-1-((S)-2-(5-phenyl-(1,3,4)oxadiazol-2-ylmethyl)-pyrrolidin-1-yl)methanone) (Langmead et al., British Journal of Pharmacology 2004, 141:340-346.) and [^3H]EMPA (N-ethyl-2[(6-methoxy-pyridin-3-yl)-(toluene-2-sulfonyl)-amino]-N-pyridin-3-ylmethyl acetamide) (Malherbe et al., British Journal of Pharmacology, 2009, 156(8), 1326-1341), respectively.
Human Orexin 2 Receptor Radioligand Binding Studies
HEK293 stably expressing human orexin-2 receptor (Genebank accession number NM_001526) were grown to confluency in DMEM/F12 (Gibco, Cat #11039), in DMEM, 10% FBS, 1× Pen/Strep, 1× NaPyruvate, 1×HEPES, 600 ug/ml G418 media on 150 cm^2 tissue culture plates, washed with 5 mM EDTA in PBS (HyClone Dulbecco's Phosphate Buffered Saline 1× with Calcium and Magnesium, Cat #SH30264.01, hereafter referred to simply as PBS) and scraped into 50 ml tubes. After centrifugation (2K xG, 10 min at 4° C.), the supernatant was aspirated and the pellets frozen and stored at −80° C. Cells were resuspended in PBS in the presence of 1 tablet of protease inhibitor cocktail (Roche, Cat. #11836145001) per 50 mL. […] Competition binding experiments in 96 well polypropylene plates were performed using [^3H]-EMPA (Moravek Corporation, specific activity=27 Ci/mmol), diluted to a […] concentration in PBS (5 nM final concentration). Compounds were solubilized in 100% DMSO (Acros Organics, Cat. #61042-1000) and tested over a range of 7 concentrations (from 0.1 nM to 10 μM). The final concentration of DMSO in the reactions is equal to or less than 0.1%. Total and nonspecific binding was determined in the absence and presence of 10 μM (N-[2-(3,4-dimethoxyphenyl)ethyl]-N-methylnaphthalene-1-carboxamide, CAS Registry #1089563-88-1). The total volume of each reaction is 200 μL (20 μL of diluted compounds, 80 μL of [^3H]-EMPA diluted in PBS and 100 μL of the cell suspension). Reactions were run for 60 min at room temperature and terminated by filtration through GF/C filter plates (PerkinElmer, Cat. #6005174) presoaked in 0.3% polyethylenimine using the cell harvester (Perkin Elmer Filtermate). The plates were washed 3 times by aspirating 30 ml PBS through the plates. Plates were dried in 55° C. oven for 60 min, scintillation fluid was added, and the radioactivity was counted on a Topcount (Packard).
Regarding `Cc1cc(N2C[C@@H]3CCN(C(=O)c4ccc(F)cc4-n4nccn4)C[C@@H]32)nc(N(C)C)n1` [Example 45, (1R,6S)-[8-(2-Dimethylamino-6-methyl-pyrimidin-4-yl)-3,8-diaza-bicyclo[4.2.0]oct-3-yl]-(4-fluoro-2-[1,2,3]triazol-2-yl-phenyl)-methanone], the inhibition constant (Ki) was found to be 119 nM.

For the compound `Cc1cc(C)nc(N2C[C@@H]3CCN(C(=O)c4ccccc4-n4nccn4)C[C@@H]32)n1` [Example 25, (1R,6S)-[8-(4,6-Dimethyl-pyrimidin-2-yl)-3,8-diaza-bicyclo[4.2.0]oct-3-yl]-(2-[1,2,3]triazol-2-yl-phenyl)-methanone], the Ki is 15 nM.

`Cc1cc(C)nc(N2C[C@@H]3CCN(C(=O)c4cc(F)ccc4-n4nccn4)C[C@@H]32)n1` [Example 41, (1R,6S)-[8-(4,6-Dimethyl-pyrimidin-2-yl)-3,8-diaza-bicyclo[4.2.0]oct-3-yl]-(5-fluoro-2-[1,2,3]triazol-2-yl-phenyl)-methanone]: the inhibition constant Ki is 12 nM.

For the compound `Cc1nccnc1N1C[C@@H]2CCN(C(=O)c3cc(F)ccc3-n3nccn3)C[C@@H]21` [Example 107, (1R,6S)-3-{[5-Fluoro-2-(2H-1,2,3-triazol-2-yl)phenyl]carbonyl}-8-(3-methylpyrazin-2-yl)-3,8-diazabicyclo[4.2.0]octane], the inhibition constant (Ki) stood at 10000 nM.

A further test concerns the target human orexin 1 receptor (Homo sapiens (Human), UniProt O43613). The experiment in a line: Human orexin 1 receptor radioligand binding ([3H]-SB674042 competition). The settings on record: CHO cells stably expressing human orexin 1 receptor; [3H]-SB674042 4 nM final; read-out: OR-1 Ki. Here is the method:
as §1
Human Orexin 1 Receptor Radioligand Binding Studies
Chinese ovary cells (CHO) stably expressing human orexin 1 receptor (Genebank accession number NM_001526) were grown to confluency in DMEM/F12 (Gibco, Cat #11039), 10% FBS, 1× Pen/Strep, 600 μg/mL G418 media on 150 cm^2 tissue culture plates, washed with 5 mM EDTA in PBS (HyClone Dulbecco's Phoshpate Buffered Saline 1× with Calcium and Magnesium, Cat #SH30264.01, hereafter referred to simply as PBS) and scraped into 50 ml tubes. After centrifugation (2K xG, 10 min at 4° C.), the supernatant was aspirated and the pellets frozen and stored at −80° C. Cells were resuspended in PBS in the presence of 1 tablet of protease inhibitor cocktail (Roche, Cat. #11836145001) per 50 mL. […] Compounds were solubilized in 100% DMSO (Acros Organics, Cat. #61042-1000) and tested over a range of 7 concentrations (from 0.1 nM to 10 μM). The final concentration of DMSO in the reactions is equal to or less than 0.1%. Total and nonspecific binding was determined in the absence and presence of 10 μM (1-(6,8-difluoro-2-methylquinolin-4-yl)-3-[4-(dimethylamino)phenyl]urea, CAS Registry #288150-92-5). The total volume of each reaction is 200 μL (20 μL of diluted compounds, 80 μL of [^3H]-SB674042 diluted in PBS and 100 μL of the cell suspension). Reactions were run for 60 min at room temperature and terminated by filtration through GF/C filter plates (PerkinElmer, Cat. #6005174) presoaked in 0.3% polyethylenimine using the cell harvester (PerkinElmer Filtermate). The plates were washed 3 times by aspirating 30 ml PBS through the plates. Plates were dried in 55° C. oven for 60 min, scintillation fluid was added, and the radioactivity was counted on a Topcount (Packard).
With `CCOc1ccc2ccccc2c1C(=O)N1CC[C@H]2CN(c3nc(C)cc(C)n3)[C@H]2C1` [Example 24, (1R,6S)[8-(4,6-Dimethyl-pyrimidin-2-yl)-3,8-diaza-bicyclo[4.2.0]oct-3-yl]-(2-ethoxy-naphthalen-1-yl)-methanone], the Ki amounted to 44 nM.

As for `O=C(c1cc(F)ccc1-c1ncccn1)N1CC[C@H]2CN(c3cnc4ccccc4n3)[C@H]2C1` [Example 33, (1R,6S)(5-Fluoro-2-pyrimidin-2-yl-phenyl)-(8-quinoxalin-2-yl-3,8-diaza-bicyclo[4.2.0]oct-3-yl)-methanone], the Ki is 47 nM.

On to `O=C(c1ccccc1-c1cccs1)N1CC[C@H]2CN(c3cnc4ccccc4n3)[C@H]2C1` [Example 4, (1R,6S)(8-Quinoxalin-2-yl-3,8-diaza-bicyclo[4.2.0]oct-3-yl)-(2-thiophen-2-yl-phenyl)-methanone], for which the Ki turned out to be 8 nM.

With `Cc1cc(N2C[C@@H]3CCN(C(=O)c4cc(F)ccc4-n4nccn4)C[C@@H]32)nc(C(F)(F)F)n1` [Example 42, (1R,6S)-(5-Fluoro-2-[1,2,3]triazol-2-yl-phenyl)-[8-(6-methyl-2-trifluoromethyl-pyrimidin-4-yl)-3,8-diaza-bicyclo[4.2.0]oct-3-yl]-methanone], the Ki was 400 nM.

`Cc1nccnc1N1C[C@@H]2CCN(C(=O)c3cccc(F)c3-n3nccn3)C[C@@H]21` [Example 109, (1R,6S)-3-{[3-Fluoro-2-(2H-1,2,3-triazol-2-yl)phenyl]carbonyl}-8-(3-methylpyrazin-2-yl)-3,8-diazabicyclo[4.2.0]octane]: the inhibitory constant (Ki) was 10000 nM.

As for `Cc1cc(C)nc(N2C[C@@H]3CCN(C(=O)c4ccccc4-c4ccco4)C[C@@H]32)n1` [Example 2, (1R,6S)[8-(4,6-Dimethyl-pyrimidin-2-yl)-3,8-diaza-bicyclo[4.2.0]oct-3-yl]-(2-furan-2-yl-phenyl)-methanone], the Ki was 61 nM.

The values are drawn from patent US8680275B2, “Fused heterocyclic compounds as orexin receptor modulators” (Janssen Pharmaceutica NV, priority 2009, dated 2014).
